Results from US11932872B2, “Dual chimeric antigen receptor-t cell which can be regulated, construction method therefor and use thereof” (NANJING ANJI BIOLOGICAL TECHNOLOGY CO., LTD, priority 2017, dated 2024).

Test system: MSLN+K562 target cells (mixed 1:1 with CEA+K562)
Experiment: Cytotoxicity test of sdCAR-T cells in vitro
Assay type: cell-based, human
Conditions: effector:mixed target cells 5:2, 22 h, flow cytometry
Procedure: This example verified the killing activity of the constructed sdCAR-T cells on tumor cells in vitro, and the selected target cells were MSLN single positive tumor cells and single positive tumor cells of negative control CEA. A total of four test groups were designed, each group had three parallel wells, and the design of the test group was the same as that of Example 6.
The cytotoxicity of sdCAR-T cells was determined according to the survival rate of target cells (MSLN^+K562). The selected target cells were equal mixed cells of MSLN and CEA. Because the constructed sdCAR-T cells had strong tumor specificity, CEA tumor cells were used as a negative control group, and the purpose of setting equal numbers of MSLN single positive cells and CEA single positive cells was to accurately and conveniently calculate the survival rate of MSLN tumor cells in each test group at each time. The survival rate of MSLN target cells in each test group was calculated according to the following formula, and then the tumor killing ability of the constructed CARs-T cells in vitro could be analyzed. […]
3) The ratio of MSLN and CEA tumor cells in each test group was detected by a flow cytometer, and then the survival rate of MSLN target cells was calculated.

FHBM: FITC and polypeptide HM-3 coupled to form a bifunctional small molecule; exogenous switching molecule for sdCAR-T cells (IVRRADRAAVPGGGGRGD)
survival rate of MSLN tumor cells: 28.74%
